How the values were obtained:
[1] = test system: ovariectomized Wistar rats with osteoporosis; test: histology of liver, kidney, heart, lung, brain, spleen, muscle after 90 days of peptide administration; assay type: in vivo, Wistar rats (Rattus norvegicus); details: 20-50 μg/kg i.p. for 90 days
Procedure: The control tissues in Panel (A) correspond to: normal tissues: L=liver, K=kidney, H=heart, Lu=lung, B=brain, M=muscle, S=spleen. Panel B) tissues of Wistar rats with osteoporosis treated with the pharmaceutical formulations object of this invention; L=liver, K=kidney, H=heart, Lu=lung, B=brain, S=Spleen M=muscle. […] This means that the synthetic peptides are harmless drugs for osteoporosis treatment, producing no adverse or secondary reactions at cellular or tissue level.

[2] = biodistribution of peptide marked with pertechnetate (99mTc); assay type: in vivo, Wistar rats
Procedure: To determine the bio distribution of the peptides object of this invention, they were marked using technetium in the form of pertechnetate (TcO4−). In order to perform the marking, a working solution which contained: 40 ug of the peptides object of this invention, 50 ul of tartrate (2 mg/ml of acetate buffer pH5), 10 μl of SnCl2 (2 mg/ml 0.1 N HCl), 50 μl of gentisic acid (1 mg/ml) and 50 μl of 99m Tc—Na TCO4− (5 mCi) was prepared. Male Wistar rats of 250 g of weight which were at a temperature of 22° C. with a photoperiod of 12 hours and relative humidity at 50% were used. Food and water was ad libitum. To assess bio distribution, groups of three rats were formed and injected intraperitoneally with 40 μl of the marked peptide. They were sacrificed by an overdose of anesthetic at 30’, 1, 3, 6 and 24 hours. Blood samples from the heart, lung, liver, spleen, kidneys, stomach, small intestine, large intestine, muscle, bone, thyroid, brain and tooth were collected. These organs were weighed on an analytical balance and subsequently placed in a NaI(TI) solid scintillation counter to detect the activity of each one of the organs. With this procedure, the percentage of the injected dose per gram of tissue (% ID/g) was obtained.

Q: For AVIFM, which “histological alteration of liver, kidney, heart, lung, brain, spleen, muscle” value [1] is on record?
A: no histological characteristics suggesting that the administration of peptides in physiological saline solution causes microscopic alteration in these tissues

Q: And the “percentage of injected dose per gram of tissue (% ID/g)” value ([2]; kidney, 3 hours)?
A: 2.4%

Q: What about the “percentage of injected dose per gram of tissue (% ID/g)” value ([2]; kidney, 24 hours) of the same substance?
A: 0.02%

Q: What about the “percentage of injected dose per gram of tissue (% ID/g)” value ([2]; large intestine, 30′ after i.p. injection) of the same substance?
A: 2.1%

Q: What about the “percentage of injected dose per gram of tissue (% ID/g)” value ([2]; large intestine, 24 hours) of the same substance?
A: 0.3%

Q: What about the “percentage of injected dose per gram of tissue (% ID/g)” value ([2]; liver, 1 hour) of the same substance?
A: 2.1%

Q: And the “percentage of injected dose per gram of tissue (% ID/g)” value ([2]; liver, 24 hours)?
A: 0.8%

Q: And the “percentage of injected dose per gram of tissue (% ID/g)” value ([2]; small intestine, 1 hour)?
A: 2.1%

Q: And the “percentage of injected dose per gram of tissue (% ID/g)” value ([2]; small intestine, 24 hours)?
A: 0.08%
